Data on one substance can be found in article PMC2818599.

Experiment [1] concerns the target HLA-DR DRB1 *0802 (human). The experiment is described as follows: radioligand binding.
Experiment [2] concerns the target HLA-DR DRB5 *0101 (human). The experiment is described as follows: radioligand binding.

Turning to HER-2/neu.783 (peptide), the concentration for half-maximal inhibition (IC50) – broadly, the concentration needed to halve the response being measured – in experiment [1] came out at 634 nM; in experiment [2] it was 392 nM.
